Biological target: MC1-R
Assay: Competitive inhibition binding assay using [I125]-NDP-α-MSH, MC1-R
Conditions: membranes of B-16 mouse melanoma cells (endogenous MC1-R), in some instances HEK-293 hMC1-R
Description: 7.1 Competitive Inhibition Assay using [I^125]-NDP-α-MSH.
A competitive inhibition binding assay was performed for exemplified peptides according to the invention using membrane homogenates prepared from HEK-293 cells that express recombinant hMC4-R, hMC3-R, or hMC5-R, and from B-16 mouse melanoma cells (containing endogenous MC1-R). In some instances, HEK-293 cells that express recombinant hMC1-R were employed. Assays were performed in 96 well GF/B Millipore multiscreen filtration plates (MAFB NOB10) pre-coated with 0.5% bovine serum albumin (Fraction V). Membrane homogenates were incubated with 0.2 nM (for hMC4-R) 0.4 nM (for MC3-R and MC5-R) or 0.1 nM (for mouse B16 MC1-R or hMC1-R) [I^125]-NDP-α-MSH (Perkin Elmer) and increasing concentrations of test peptides of the present invention in buffer containing 25 mM HEPES buffer (pH 7.5) with 100 mM NaCl, 2 mM CaCl2, 2 mM MgCl2, 0.3 mM 1,10-phenanthroline, and 0.2% bovine serum albumin. After incubation for 60 minutes at 37° C., the assay mixture was filtered and the membranes washed three times with ice-cold buffer. Filters were dried and counted in a gamma counter for bound radioactivity. […] Maximal specific binding (100%) was defined as the difference in radioactivity (cpm) bound to cell membranes in the absence and presence of 1 μM NDP-α-MSH. […] Each assay was conducted in triplicate and the actual mean values are described, with results less than 0% reported as 0%. Ki values for test peptides of the present invention were determined using Graph-Pad Prism® curve-fitting software.

SMILES | Ki
CC(=O)N[C@@H](CCCNC(=N)N)C(=O)N[C@H]1CCC(=O)NCCC[C@@H](C(N)=O)NC(=O)[C@H](Cc2c[nH]c3ccccc23)NC(=O)[C@H](CCCNC(=N)N)NC(=O)[C@@H](Cc2cccc(C(F)(F)F)c2)NC(=O)[C@H](CCN)NC1=O [Example 14, Ac-Arg-cyclo(Glu-Dab-D-Phe(3-CF3)-Arg-Trp-Orn)-NH2] | 9 nM
CC(=O)N[C@@H](CCCNC(=N)N)C(=O)N[C@H]1CCCNC(=O)CC[C@@H](C(N)=O)NC(=O)[C@H](Cc2c[nH]c3ccccc23)NC(=O)[C@H](CCCNC(=N)N)NC(=O)[C@@H](Cc2cccc(C)c2)NC(=O)[C@H](CC(N)=O)NC1=O [Example 72, Ac-Arg-cyclo(Orn-Asn-D-Phe(3-Me)-Arg-Trp-Glu)-NH2] | 2300 nM
CC(=O)N[C@@H](CCCNC(=N)N)C(=O)N[C@H]1CCC(=O)NCCC[C@@H](C(N)=O)NC(=O)[C@H](Cc2c[nH]c3ccccc23)NC(=O)[C@H](CCCNC(=N)N)NC(=O)[C@@H](Cc2ccccc2C#N)NC(=O)[C@H](CCN)NC1=O [Example 12, Ac-Arg-cyclo(Glu-Dab-D-Phe(2-CN)-Arg-Trp-Orn)-NH2] | 35 nM
CC(=O)N[C@@H](CCCNC(=N)N)C(=O)N[C@H]1CCCNC(=O)CC[C@@H](C(N)=O)NC(=O)[C@H](Cc2c[nH]c3ccccc23)NC(=O)[C@H](CCCNC(=N)N)NC(=O)[C@@H](Cc2cc(F)cc(F)c2)NC(=O)[C@H](CC(N)=O)NC1=O [Example 77, Ac-Arg-cyclo(Orn-Asn-D-Phe(3,5-diF)-Arg-Trp-Glu)-NH2] | 190 nM
CC(=O)N[C@@H](CCCNC(=N)N)C(=O)N[C@H]1CCC(=O)NCCC[C@@H](C(N)=O)NC(=O)[C@H](Cc2c[nH]c3ccccc23)NC(=O)[C@H](CCCNC(=N)N)NC(=O)[C@@H](Cc2ccccc2C(F)(F)F)NC(=O)[C@H](CC(N)=O)NC1=O [Example 116, Ac-Arg-cyclo(Glu-Asn-D-Phe(2-CF3)-Arg-Trp-Orn)-NH2] | 380 nM
CC(=O)N[C@@H](CCCNC(=N)N)C(=O)N[C@H]1CCC(=O)NCCC[C@@H](C(N)=O)NC(=O)[C@H](Cc2c[nH]c3ccccc23)NC(=O)[C@H](CCCNC(=N)N)NC(=O)[C@@H](Cc2ccccc2C)NC(=O)[C@H](CC(N)=O)NC1=O [Example 73, Ac-Arg-cyclo(Glu-Asn-D-Phe(2-Me)-Arg-Trp-Orn)-NH2] | 160 nM
CC(=O)N[C@@H](CCCNC(=N)N)C(=O)N[C@H]1CCC(=O)NCCC[C@@H](C(N)=O)NC(=O)[C@H](Cc2c[nH]c3ccccc23)NC(=O)[C@H](CCCNC(=N)N)NC(=O)[C@@H](Cc2ccccc2F)NC(=O)[C@H](CCC(N)=O)NC1=O [Example 59, Ac-Arg-cyclo(Glu-Gln-D-Phe(2-F)-Arg-Trp-Orn)-NH2] | 58 nM
CC(=O)N[C@@H](CCCNC(=N)N)C(=O)N[C@H]1CCC(=O)NCCC[C@@H](C(N)=O)NC(=O)[C@H](Cc2c[nH]c3ccccc23)NC(=O)[C@H](CCCNC(=N)N)NC(=O)[C@@H](Cc2cccc(Cl)c2)NC(=O)[C@H](CCN)NC1=O [Example 2, Ac-Arg-cyclo(Glu-Dab-D-Phe(3-Cl)-Arg-Trp-Orn)-NH2] | 1 nM
CC(=O)N[C@H](CCCNC(=N)N)C(=O)N[C@H]1CC(=O)NCCCC[C@@H](C(N)=O)NC(=O)[C@H](Cc2c[nH]c3ccccc23)NC(=O)[C@H](CCCNC(=N)N)NC(=O)[C@@H](Cc2ccccc2F)NC(=O)[C@H](CCC(N)=O)NC1=O [Example 82, Ac-D-Arg-cyclo(Asp-Gln-D-Phe(2-F)-Arg-Trp-Lys)-NH2] | 220 nM
CC(=O)N[C@@H](CCCNC(=N)N)C(=O)N[C@H]1CCC(=O)NCCC[C@@H](C(N)=O)NC(=O)[C@H](Cc2c[nH]c3ccccc23)NC(=O)[C@H](CCCNC(=N)N)NC(=O)[C@@H](Cc2ccc(C)cc2)NC(=O)[C@H](CCN)NC1=O [Example 15, Ac-Arg-cyclo(Glu-Dab-D-Phe(4-Me)-Arg-Trp-Orn)-NH2] | 0.75 nM

More lines, now with the values ahead:

Ki | SMILES
0.8 nM | CC(=O)N[C@@H](CCCNC(=N)N)C(=O)N[C@H]1CCC(=O)NCCC[C@@H](C(N)=O)NC(=O)[C@H](Cc2c[nH]c3ccccc23)NC(=O)[C@H](CCCNC(=N)N)NC(=O)[C@@H](Cc2ccccc2F)NC(=O)[C@H](CCN)NC1=O [Example 9, Ac-Arg-cyclo(Glu-Dab-D-Phe(2-F)-Arg-Trp-Orn)-NH2]
145 nM | CC(=O)N[C@@H](CCCNC(=N)N)C(=O)N[C@H]1CCCNC(=O)CC[C@@H](C(N)=O)NC(=O)[C@H](Cc2c[nH]c3ccccc23)NC(=O)[C@H](CCCNC(=N)N)NC(=O)[C@@H](Cc2ccccc2C)NC(=O)[C@H](CCC(N)=O)NC1=O [Example 111, Ac-Arg-cyclo(Orn-Gln-D-Phe(2-Me)-Arg-Trp-Glu)-NH2]
2 nM | CC(=O)N[C@H](CCCNC(=N)N)C(=O)N[C@H]1CCCNC(=O)CC[C@@H](C(N)=O)NC(=O)[C@H](Cc2c[nH]c3ccccc23)NC(=O)[C@H](CCCNC(=N)N)NC(=O)[C@@H](Cc2ccccc2Cl)NC(=O)[C@H](Cc2c[nH]cn2)NC1=O [Example 50, Ac-D-Arg-cyclo(Orn-His-D-Phe(2-Cl)-Arg-Trp-Glu)-NH2]
28 nM | CC(=O)N[C@@H](CCCNC(=N)N)C(=O)N[C@H]1CCC(=O)NCCC[C@@H](C(N)=O)NC(=O)[C@H](Cc2c[nH]c3ccccc23)NC(=O)[C@H](CCCNC(=N)N)NC(=O)[C@@H](Cc2ccccc2Cl)NC(=O)[C@H](CN)NC1=O [Example 62, Ac-Arg-cyclo(Glu-Dap-D-Phe(2-Cl)-Arg-Trp-Orn)-NH2]
0.7 nM | CC(=O)N[C@H](CCCNC(=N)N)C(=O)N[C@H]1CCCNC(=O)CC[C@@H](C(N)=O)NC(=O)[C@H](Cc2c[nH]c3ccccc23)NC(=O)[C@H](CCCNC(=N)N)NC(=O)[C@@H](Cc2ccc(F)c(F)c2)NC(=O)[C@H](Cc2c[nH]cn2)NC1=O [Example 54, Ac-D-Arg-cyclo(Orn-His-D-Phe(3,4-diF)-Arg-Trp-Glu)-NH2]

Reference: patent publication US9040663B2, “Melanocortin receptor-specific peptides” (AstraZeneca AB, priority 2009, dated 2015)
